MC4R ag barr = activates human MC4R beta-arrestin recruitment | P32245 | U2OS MC4R beta-arrestin complementation, luminescence; percent of melanotan II response, DMSO zero | activation, % at 8.9 µM | 360,000 tested, 0.98% active;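 active = activation above a per-plate cutoff, the mean activation of sample wells on that plate plus 3 SD, cut at about 8% in these data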
NALP1 yeast inh = inhibitors of NALP1 inflammasome in yeast; inhibition, % at 10 µM; 280,000 tested, 0.61% active; S. cerevisiae NALP1/ASC/caspase-1 growth, X-gal OD620, 72 h; AID 2071; in the data active = inhibition mostly above about 24%, no sharp cut-off; inactive = mostly below about 32%
ALR H2O2 inh = blocks human ALR sulfhydryl oxidase activity; inhibition, % (no concentration beside the values); hit rate 3.8% among 290,000; purified ALR, DTT oxidation, H2O2 HRP-luminol luminescence; AID 485317; P55789;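 active = mean and each replicate at 75% or more; inconclusive = only one of the two met; inactive = neither met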;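 note: stock transfer was 7.5 nL into about 7.5 µL; 0% = neutral wells and 100% = wells with inactivated enzyme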
HDAC3 inhib = human HDAC3 inhibition. AID 2718. O15379. inhibition, % at 8.3 µM. recombinant HDAC3, fluorogenic peptide/trypsin coupled, fluorescence. 320,000 tested, 0.15% active; in the data active = inhibition above about 26%, passing the limit was not always enough
MC4R antag cAMP = human MC4R antagonism in cAMP assay. 360,000 tested, 0.48% active. MC4R-expressing cells, MTII-stimulated cAMP, LANCE TR-FRET. inhibition, % at 6.5 µM. P32245;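 active = inhibition above its plate's cutoff, the mean of tested wells on that plate plus 3 SD, cut at about 29% in these data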;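 also: 0% = Melanotan II alone and 100% = Melanotan II plus saturating MCL0020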
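material = U2OS cells stably expressing human melanocortin 4 receptor (MC4R) | also added = Melanotan II challenge | dosing = single nominal compound dose of 6.5 µM | detection = TR-FRET with Eu-cAMP and labeled anti-cAMP, 671 nm | replication = singlicate | timing = compound 30 min, challenge 1 h, detection 1 h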
UUG fidelity = alters start codon recognition fidelity in yeast | S. cerevisiae UUG-firefly luciferase reporter, luminescence/redox ratio | activity score, % at 18.7 µM | hit rate 0.13% among 350,000 | AID 602363;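 active means replicate mean at a twofold rise or more, about +100% in these data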;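 further: firefly luciferase made from a UUG start codon reports start codon fidelity; reporter light over untreated wells divided by growth signal over untreated wells; some hits fall short of that in this replicate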
Starred values were filed as active, the others as inactive; x = not tested or not shown. Only some compounds are listed: those with a hit (about 4.2% of all), similar ones and a draw of the others.

SMILES	MC4R ag barr	NALP1 yeast inh	ALR H2O2 inh	HDAC3 inhib	MC4R antag cAMP	UUG fidelity
COC(=O)C[C@@H]1CC[C@@H]2[C@H](COc3ccc(NS(=O)(=O)c4cccc(F)c4)cc3C(=O)N2C)O1	x	x	x	x	x	13.2
O=C(C[C@H]1CC[C@H]2[C@@H](COC[C@@H](O)CN2C(=O)c2ccccc2F)O1)N1CCCCC1	x	x	x	x	x	-1.4
CCOc1ccc(C(=O)Nc2nc(C)c(C(=O)OC)s2)cc1	8.3*	15.5	x	-2.9	11.4	-0.9
COc1ccc(-c2nc(NC(=O)c3ccc(OCC(=O)Nc4ccc(F)cc4)c(OC)c3)sc2C)cc1	44.6*	24.9	32.4	-5.0	4.1	-8.2
COc1ccc(C(=O)Nc2nc(C)c(C)s2)cc1OC	0.5	2.2	99.2*	0.1	3.4	x
COc1cc(C(=O)Nc2nc3ccc(S(C)(=O)=O)cc3s2)cc(OC)c1C	19.4*	12.2	1.1	-2.6	6.5	1.5
COC(=O)c1sc(NC(=O)c2ccncc2)nc1C	-1.3	18.0	26.9	-0.8	0.3	-18.2
CCCC(O)C#Cc1cnc2c(c1)C(=O)N([C@H](C)CO)C[C@H](C)[C@H](CN(C)C(=O)NC(C)C)O2 (stereo partly specified)	x	x	x	x	x	2.2
N#Cc1c(/N=C/c2cccs2)sc2c1CCCCC2	-2.8	3.0	94.8*	7.6	-0.9	x
N#Cc1c(/N=C/c2ccc(Br)s2)sc2c1CCC2	0.5	3.2	x	x	1.5	-17.6
CN(C)/C=N/c1sc2c(c1C#N)CCC2	1.1	6.7	87.2*	7.7	-2.5	-9.5
O=C(c1cccc(F)c1)N1C[C@@H]2[C@H](c3ccccc31)[C@H](CO)N2C(=O)c1ccc(F)cc1	x	x	x	x	x	3.6
COC(=O)c1sc(N2C(=O)C(=O)/C(=C(/O)c3ccccc3)C2c2ccco2)nc1C (stereo unspecified)	-1.5	31.4	90.5*	9.8	12.7	x
Cc1nc(N2C(=O)C(=O)/C(=C(/O)c3ccccc3)C2c2ccco2)sc1C (stereo unspecified)	1.8	9.8	0.2	8.5	-2.6	-21.4
Nc1ccc(N=Nc2ccccc2O)c(N)c1	-0.8	x	83.4*	10.4	7.1	-9.4
CCOc1ccc2c(c1)n(CO)c(=S)n2CO	0.5	-7.0	99.8*	-0.2	-5.0	-14.5
CCOc1ccc2[nH]c(=S)[nH]c2c1	-1.0	-7.6	x	x	4.1	-4.6
O=C1CSC2=NCN(c3ccc4c(c3)OCO4)CN12	0.1	3.4	2.0	10.6	0.3	-14.4
CN(C)c1ccc(N2CN=C3SCC(=O)N3C2)cc1	1.1	21.4	98.7*	6.4	-3.4	-16.4
COc1ccccc1S(=O)(=O)N[C@H]1CC[C@H](CCNC(=O)C2CC2)O[C@@H]1CO	x	x	x	x	x	-3.8
O=C1NN(c2ccccc2)C(=O)/C1=C\c1cccc(OC(=O)c2cccs2)c1	-1.5	11.3	89.1*	3.0	-4.2	-10.4
O=C1NN(c2ccc(Cl)c(Cl)c2)C(=O)/C1=C/c1cccc(OC(=O)c2cccs2)c1	x	15.9	-6.6	11.1	x	x
Cc1cc(-c2nnc(SCC(=O)Nc3nc(-c4ccc(Cl)cc4)cs3)o2)no1	-2.5	x	99.0*	-1.7	10.5	-14.1
O=C(ONc1ccc(N=NC(=O)c2ccccc2O)cc1)c1ccccc1	-2.5	21.5	97.8*	-4.6	-1.6	-17.2
CCOC(=O)c1[nH]c(C)c(C(=O)N2CCN(c3ccc(F)cc3)CC2)c1C	1.6	-3.9	89.7*	-2.3	27.2	0.8
The list continues:
SMILES	MC4R ag barr	NALP1 yeast inh	ALR H2O2 inh	HDAC3 inhib	MC4R antag cAMP	UUG fidelity
CCOC(=O)c1[nH]c(C)c(C(=O)N2CCN(c3ccc(OC)cc3)CC2)c1C	-1.7	20.1	75.0	x	3.3	11.7
CCSc1nc(-c2ccccc2)c(C#N)c(=O)[nH]1	-1.0	29.5	10.1	-0.6	15.6	-11.7
N#Cc1c(-c2ccccc2)nc(SCc2nc(N)nc(N3CCCCC3)n2)[nH]c1=O	-0.3	4.8	97.3*	3.7	2.0	-16.6
CCn1cnc2c(cnn2-c2ccccc2)c1=O	-2.6	35.8*	-3.3	4.2	8.0	-9.0
Cc1nc2sccn2c(=O)c1S(=O)(=O)N1CCN(c2ccc(F)cc2)CC1	-0.3	10.5	95.0*	2.2	5.7	-18.7
COc1ccc(CN(C)C[C@H]2Oc3c(NC(=O)Nc4ccc(C(F)(F)F)cc4)cccc3C(=O)N([C@H](C)CO)C[C@@H]2C)cc1	x	x	x	x	x	8.0
O=c1cc(CO)oc(C(Nc2ccccn2)c2ccsc2)c1O (stereo unspecified)	x	-6.3	-23.2	-0.1	x	x
COc1ccc(C(Nc2ccccn2)c2oc(CO)cc(=O)c2O)cc1 (stereo unspecified)	-1.0	24.3	97.9*	3.5	9.9	x
O=c1cc(CO)oc(C(Nc2ccccn2)c2ccccc2Cl)c1O (stereo unspecified)	2.3	10.4	x	0.8	-4.3	x
COc1ccc(C(c2oc(CO)cc(=O)c2O)c2oc(CO)cc(=O)c2O)cc1	-2.0	6.2	27.3	6.0	1.0	x
Cc1ccnc(NC(c2ccccc2O)c2oc(CO)cc(=O)c2O)c1 (stereo unspecified)	-0.9	9.8	98.0*	14.1	-2.0	x
O=c1cc(CO)oc(C(Nc2ccccn2)c2ccc(F)cc2)c1O (stereo unspecified)	-0.3	34.3	97.7*	10.3	6.5	-0.4
CC(C)NC(=O)N[C@H]1CC[C@@H](CCNS(=O)(=O)Cc2ccccc2)O[C@@H]1CO	x	x	x	x	x	-1.7
CC(C)C(=O)Nc1ccc2c(c1)C(=O)N(C)[C@H]1CC[C@H](CC(=O)Nc3ccccc3F)O[C@@H]1CO2	x	x	x	x	x	1.7
C=CCc1c(C)nc2c(C)cccc2c1SC(=N)N	0.6	13.5	99.9*	-2.3	-10.0	-22.2
Cc1nc2c(C)cccc2c(SC(=N)N)c1CC=C(Cl)Cl	-0.7	-11.3	8.3	1.4	3.1	x
Cc1ccc(C=Nc2ccccc2C(N)=O)o1	0.2	14.7	-8.1	-12.0	7.4	x
Cc1ccc(C=Nc2ccc(N(C)C)cc2)o1	-3.2	-4.0	98.1*	7.5	22.0	-41.3
C/C=C/c1ccc2c(c1)O[C@H](CN(C)C)[C@@H](C)CN([C@H](C)CO)S2(=O)=O	x	x	x	x	x	9.9
CCn1c(-c2ccccn2)nc2cc(S(=O)(=O)N(C)C)ccc21	-1.8	15.5	99.0*	7.5	5.2	-3.3
CCn1c(-c2cc(Br)cc(OC)c2O)nc2cc(S(=O)(=O)N(C)C)ccc21	-2.4	20.1	90.7*	-1.3	5.8	-7.3
C[C@H]1CN([C@@H](C)CO)C(=O)c2cc(NC(=O)CCC(F)(F)F)ccc2O[C@@H]1CN(C)C(=O)Nc1cccc2ccccc12	x	x	x	x	x	2.3
O=C(CSc1nnc(CNC(=O)c2c(F)cccc2F)o1)Nc1ccc2c(c1)OCCO2	-2.6	17.0	98.3*	6.7	-1.4	-0.6
NCCc1nnc(SCC(=O)Nc2cccc(Cl)c2)o1	-1.8	16.8	99.4*	1.4	-2.9	5.6
O=C(CSc1nnc(CNC(=O)c2c(F)cccc2Cl)o1)NCc1ccc2c(c1)OCO2	-1.3	26.2	-13.3	5.0	5.1	-15.7

Fetched by structure from the list above:
SMILES	MC4R ag barr	NALP1 yeast inh	ALR H2O2 inh	HDAC3 inhib	MC4R antag cAMP	UUG fidelity
Cc1nc2sccn2c(=O)c1S(=O)(=O)N1CCN(c2ccc(F)cc2)CC1	-0.3	10.5	95.0*	2.2	5.7	-18.7
CC(C)C(=O)Nc1ccc2c(c1)C(=O)N(C)[C@H]1CC[C@H](CC(=O)Nc3ccccc3F)O[C@@H]1CO2	x	x	x	x	x	1.7
CCn1c(-c2ccccn2)nc2cc(S(=O)(=O)N(C)C)ccc21	-1.8	15.5	99.0*	7.5	5.2	-3.3
C=CCc1c(C)nc2c(C)cccc2c1SC(=N)N	0.6	13.5	99.9*	-2.3	-10.0	-22.2
O=c1cc(CO)oc(C(Nc2ccccn2)c2ccccc2Cl)c1O (stereo unspecified)	2.3	10.4	x	0.8	-4.3	x
COc1ccc(CN(C)C[C@H]2Oc3c(NC(=O)Nc4ccc(C(F)(F)F)cc4)cccc3C(=O)N([C@H](C)CO)C[C@@H]2C)cc1	x	x	x	x	x	8.0

Assay outcomes deposited in PubChem BioAssay by several laboratories.
